The target in this test is gastrin-releasing peptide receptor (Homo sapiens, UniProt P30550). Put plainly: LigandTracer real-time cell binding (PC-3 cells).

Amino acid sequences for entries named in this document (tags omitted). A change or cut given only in a name is not applied to a line headed by its entry.
UniProt P30550: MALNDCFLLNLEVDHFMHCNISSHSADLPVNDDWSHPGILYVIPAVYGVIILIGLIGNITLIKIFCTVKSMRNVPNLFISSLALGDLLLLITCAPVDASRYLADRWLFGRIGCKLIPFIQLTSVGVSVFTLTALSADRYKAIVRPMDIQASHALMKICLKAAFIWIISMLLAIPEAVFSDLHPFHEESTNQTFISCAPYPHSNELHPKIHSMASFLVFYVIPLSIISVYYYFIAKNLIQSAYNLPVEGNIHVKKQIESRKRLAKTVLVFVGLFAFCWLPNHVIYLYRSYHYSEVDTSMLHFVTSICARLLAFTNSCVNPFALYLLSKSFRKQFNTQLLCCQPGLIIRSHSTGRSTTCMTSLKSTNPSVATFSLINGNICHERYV

The source of these data is PMC12797171 (2025).

B1: LF1 (peptide)
chain: FQWAVGHL
modifications: 177Lu-AAZTA5-Pip N-terminal, D-Phe1, statine (Sta) between His and Leu, C-terminal amide
By Kd is commonly meant a measure of binding affinity in units of concentration. A higher Kd goes with lower affinity. As to B1, the Kd was determined as 0.12 nM.
